Data published in patent US20050049231A1, “Treatment method” (priority 2001, published 2005).

Conditions: baboons; intra-vaginal doses of 0.3, 0.6 and 0.9 mCi; systemic blood samples

CCC1(c2ccc(N)cc2)CCC(=O)NC1=O (stereo not shown) [C14-labelled aminoglutethimide, “D,L”-3-“4-Aminophenyl”-3-ethyl-2,6-piperidinedione[Phenyl-14C“U”]]
blood levels (in words): detectable and there was a dose-response relationship
